Drawing on patent US20050009840A1 (SUGEN, INC., priority 2003, published 2005), this text covers IC50 for 28 compounds.

Protein sequences, listed by entry. Tags and fused reporters are not part of them. Residues count along the entry.
UniProt P08581, 1078-1345 limits assumed: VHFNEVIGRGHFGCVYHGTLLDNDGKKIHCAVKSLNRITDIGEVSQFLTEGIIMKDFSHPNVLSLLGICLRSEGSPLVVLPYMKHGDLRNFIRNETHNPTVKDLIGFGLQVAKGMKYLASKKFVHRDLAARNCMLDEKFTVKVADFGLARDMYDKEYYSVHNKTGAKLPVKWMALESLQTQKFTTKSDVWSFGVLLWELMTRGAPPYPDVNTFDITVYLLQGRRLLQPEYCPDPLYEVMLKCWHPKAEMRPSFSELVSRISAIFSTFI

For the assay, the target named is T1, Met kinase domain (GST fusion protein) (Homo sapiens, UniProt P08581).
T1 construct: Purified GST fusion protein containing the Met kinase domain
Description: Met transphosphorylation assay (ELISA, poly(glu-tyr) substrate).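 Further: Cell-free ELISA with plate-bound poly(Glu:Tyr 4:1) phosphorylated by GST-fused Met kinase domain plus ATP and Mn2+, phosphotyrosine detected by anti-phosphotyrosine antibody with HRP and ABTS read-out.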 Format: biochemical. Here is the method: Met Transphosphorylation Assay
• 1. […] PBS, Gibco Catalog # 450-1300EB • 4. 50 mM HEPES • 5. […] TBST Buffer. • 8. 10% aqueous (MilliQue H2O) DMSO. • 9. […] 4× ATP Reaction Mixture: for 10 mL, mix 0.4 mL 1 M manganese chloride and 0.02 mL 0.1 M ATP in 9.56 mL dH2O. • 12. 4× Negative Controls Mixture: for 10 mL, mix 0.4 mL 1 M manganese chloride in 9.6 mL dH2O. • 13. […] 500 mM EDTA. • 15. […] Goat anti-rabbit horseradish peroxidase conjugated antibody, Biosource, Inc. • 18. ABTS Solution: for 1 L, mix 19.21 g citric acid, 35.49 g Na2HPO4 and 500 mg ABTS with sufficient dH2O to make 1 L. • 19. […] 0.2 M HCl Procedure: • 1. […] Block plate with 150 μL of 5% BSA/PBS for 60 min. • 3. […] Add 50 μl of the diluted kinase to all wells. (Purified kinase is diluted with Kinase Dilution Buffer. Final concentration should be 10 ng/well.) • 5. Add 25 μL of the test compound (in 4% DMSO) or DMSO alone (4% in dH2O) for controls to plate. • 6. Incubate the kinase/compound mixture for 15 minutes. • 7. Add 25 μL of 40 mM MnCl2 to the negative control wells. • 8. Add 25 μL ATP/MnCl2 mixture to the all other wells (except the negative controls). Incubate for 5 min. • 9. Add 25 μL 500 mM EDTA to stop reaction. • 10. Wash plate 3× with TBST. • 11. Add 100 μL rabbit polyclonal anti-Ptyr diluted 1:10,000 in Antibody Dilution Buffer to each well. Incubate, with shaking, at room temperature for one hour. • 12. Wash plate 3× with TBST. • 13. […] Add 100 μL per well and incubate at room temperature, with shaking, for one hour. • 14. Wash plate 1× with PBS. • 15. Add 100 μl of ABTS/H2O2 solution to each well. • 16. If necessary, stop the development reaction with the addition of 100 μl of 0.2M HCl per well. • 17.
For orientation: In an ELISA, binding on a coated surface is turned into a signal by an enzyme label.

Read-outs that look alike come from different tables or passages of the source.

As a reminder, the IC50 is the concentration at which inhibition is half-maximal. Low readings indicate greater potency, high ones weaker potency. `Nc1ncc(-c2ccc(C(=O)N3CCC(N4CCCC4)CC3)cc2)cc1OCc1c(Cl)cccc1Cl` [Example I-41, {4-[6-Amino-5-(2,6-dichloro-benzyloxy)-pyridin-3-yl]-phenyl}-(4-pyrrolidin-1-yl-piperidin-1-yl)-methanone] gave an IC50 of 0.35 µM. Same read-out and setting: under `Nc1ncc(-c2ccc(C(=O)N3CCC(N4CCCC4)CC3)cc2)cc1OCc1ccccc1Cl` [Example I-155, {4-[6-Amino-5-(2-chloro-benzyloxy)-pyridin-3-yl]-phenyl}-(4-pyrrolidin-1-yl-piperidin-1-yl)-methanone] stands 1.5 µM; under `N#Cc1ccccc1COc1cc(-c2ccc(C(=O)N3CCC(N4CCCC4)CC3)cc2)cnc1N` [Example I-165, 2-{2-Amino-5-[4-(4-pyrrolidin-1-yl-piperidine-1-carbonyl)-phenyl]-pyridin-3-yloxymethyl}-benzonitrile], 3.9 µM.

In turn, `CN1CCC(NC(=O)c2ccc(-c3cnc(N)c(OCc4ccccc4C#N)c3)cc2)CC1` [Example I-168, 4-[6-Amino-5-(2-cyano-benzyloxy)-pyridin-3-yl]-N-(1-methyl-piperidin-4-yl)-benzamide] had an IC50 of 10.8 µM.

Take `Nc1ncc(-c2ccc(C(=O)N3CCC(N4CCCC4)CC3)cc2)cc1OCc1ccc(Cl)cc1Cl` [Example I-176, {4-[6-Amino-5-(2,4-dichloro-benzyloxy)-pyridin-3-yl]-phenyl}-(4-pyrrolidin-1-yl-piperidin-1-yl)-methanone]: the midpoint of inhibition, the IC50, lay at 0.85 µM. Consider `CN1CCC(NC(=O)c2ccc(-c3cnc(N)c(OCc4ccc(Cl)cc4Cl)c3)cc2)CC1` [Example I-179, 4-[6-Amino-5-(2,4-dichloro-benzyloxy)-pyridin-3-yl]-N-(1-methyl-piperidin-4-yl)-benzamide], for which the midpoint of inhibition, the IC50, lay at 1.12 µM. This IC50 and that of the compound before are within 1.5-fold of each other. In turn, `Nc1ncc(-c2ccc(C(=O)N3CCC(N4CCCC4)CC3)cc2)cc1OCc1ccccc1C(F)(F)F` [Example I-187, {4-[6-Amino-5-(2-trifluoromethyl-benzyloxy)-pyridin-3-yl]-phenyl}-(4-pyrrolidin-1-yl-piperidin-1-yl)-methanone] had an IC50 (Table 2) of 1.01 µM. The same measure, in the same setting: the value for `CN1CCC(NC(=O)c2ccc(-c3cnc(N)c(OCc4ccccc4C(F)(F)F)c3)cc2)CC1` [Example I-190, 4-[6-Amino-5-(2-trifluoromethyl-benzyloxy)-pyridin-3-yl]-N-(1-methyl-piperidin-4-yl)-benzamide] was 3.8 µM; that for `CN1CCC(NC(=O)c2ccc(-c3cnc(N)c(OCc4ccc(C(C)(C)C)cc4)c3)cc2)CC1` [Example I-199, 4-[6-Amino-5-(4-tert-butyl-benzyloxy)-pyridin-3-yl]-N-(1-methyl-piperidin-4-yl)-benzamide] was 2.92 µM. Same read-out and setting: under `CC(C)(C)c1ccc(COc2cc(-c3ccc(C(=O)NCCCN4CCOCC4)cc3)cnc2N)cc1` [Example I-201, 4-[6-Amino-5-(4-tert-butyl-benzyloxy)-pyridin-3-yl]-N-(3-morpholin-4-yl-propyl)-benzamide] stands 6.3 µM; under `Nc1ncc(-c2ccc(C(=O)N3CCC[C@@H]3CN3CCCC3)cc2)cc1OCc1ccc(F)cc1Cl` [Example I-203, {4-[6-Amino-5-(2-chloro-4-fluoro-benzyloxy)-pyridin-3-yl]-phenyl}-[(2R)-2-pyrrolidin-1-ylmethyl-pyrrolidin-1-yl]-methanone], 1.48 µM. `Nc1ncc(-c2ccc(C(=O)N3CCC[C@H]3CN3CCCC3)cc2)cc1OCc1ccc(F)cc1Cl` [Example I-204, {4-[6-Amino-5-(2-chloro-4-fluoro-benzyloxy)-pyridin-3-yl]-phenyl}-[(2S)-2-pyrrolidin-1-ylmethyl-pyrrolidin-1-yl]-methanone] came in with an IC50 (Table 2) of 2.5 µM. Still for that read-out and setting: under `Nc1ncc(-c2ccc(C(=O)N3CCC(N4CCCC4)CC3)cc2)cc1OCc1c(F)ccc(F)c1Cl` [Example I-213, {4-[6-Amino-5-(2-chloro-3,6-difluoro-benzyloxy)-pyridin-3-yl]-phenyl}-(4-pyrrolidin-1-yl-piperidin-1-yl)-methanone] stands 0.049 µM; under `C[C@@H]1CN(C(=O)c2ccc(-c3cnc(N)c(OCc4c(F)ccc(F)c4Cl)c3)cc2)C[C@H](C)N1` [Example I-215, {4-[6-Amino-5-(2-chloro-3,6-difluoro-benzyloxy)-pyridin-3-yl]-phenyl}-(3,5-dimethyl-piperazin-1-yl)-methanone], 0.1 µM; under `Nc1ncc(-c2cccc(C(=O)N3CCC(N4CCCC4)CC3)c2)cc1OCc1c(F)ccc(F)c1Cl` [Example I-227, {3-[6-Amino-5-(2-chloro-3,6-difluoro-benzyloxy)-pyridin-3-yl]-phenyl}-(4-pyrrolidin-1-yl-piperidin-1-yl)-methanone], 0.05 µM. Still for that read-out and setting: under `Nc1ncc(-c2cccc(C(=O)N3CCC[C@H]3CN3CCCC3)c2)cc1OCc1c(F)ccc(F)c1Cl` [Example I-230, {3-[6-Amino-5-(2-chloro-3,6-difluoro-benzyloxy)-pyridin-3-yl]-phenyl}-[(2S)-2-pyrrolidin-1-ylmethyl-pyrrolidin-1-yl]-methanone] stands 0.19 µM; under `CN1CCC(NC(=O)c2cccc(-c3cnc(N)c(OCc4c(F)ccc(F)c4Cl)c3)c2)CC1` [Example I-234, 3-[6-Amino-5-(2-chloro-3,6-difluoro-benzyloxy)-pyridin-3-yl]-N-(1-methyl-piperidin-4-yl)-benzamide], 0.23 µM; under `CC(Oc1cc(-c2ccc(C(=O)NC3CCN(C)CC3)cc2)cnc1N)c1c(Cl)ccc(F)c1Cl` (stereo not shown) [Example I-292, 4-{6-Amino-5-[1-(2,6-dichloro-3-fluoro-phenyl)-ethoxy]-pyridin-3-yl}-N-(1-methyl-piperidin-4-yl)-benzamide], 0.069 µM. `CC(=O)N1CCN(CCNC(=O)c2ccc(-c3cnc(N)c(OC(C)c4c(Cl)ccc(F)c4Cl)c3)cc2)CC1` (stereo not shown) [Example I-300, N-[2-(4-Acetyl-piperazin-1-yl)-ethyl]-4-{6-amino-5-[1-(2,6-dichloro-3-fluoro-phenyl)-ethoxy]-pyridin-3-yl}-benzamide] displayed an IC50 (Table 2) of 0.059 µM. On to `CC(Oc1cc(-c2ccc(C(=O)N3CC[C@H](N)C3)cc2)cnc1N)c1c(Cl)ccc(F)c1Cl` (stereo partly drawn) [Example I-303, (4-{6-Amino-5-[1-(2,6-dichloro-3-fluoro-phenyl)-ethoxy]-pyridin-3-yl}-phenyl)-((S)-3-amino-pyrrolidin-1-yl)-methanone], for which, for the setting “Table 2”, half-maximal inhibition (IC50) was put at 0.059 µM. This lies in the double-digit nanomolar range.

With `CC(Oc1cc(-c2cccc(C(=O)NCCCN3CCOCC3)c2)cnc1N)c1c(Cl)ccc(F)c1Cl` (stereo not shown) [Example I-317, 3-{6-Amino-5-[1-(2,6-dichloro-3-fluoro-phenyl)-ethoxy]-pyridin-3-yl}-N-(3-morpholin-4-yl-propyl)-benzamide], the IC50 (Table 2) came to 0.059 µM. Same read-out and setting: the value for `CC(Oc1cc(-c2ccc(NS(=O)(=O)CCN3CCC(O)CC3)cc2)cnc1N)c1c(Cl)ccc(F)c1Cl` (stereo not shown) [Example I-324] was 0.059 µM. As for `CC(Oc1cc(-c2ccc(C(=O)NCCN3CCCC3)cc2)cnc1N)c1c(Cl)cccc1Cl` (stereo not shown) [Example I-400, 4-{6-Amino-5-[1-(2,6-dichloro-phenyl)-ethoxy]-pyridin-3-yl}-N-(2-pyrrolidin-1-yl-ethyl)-benzamide], for the setting “plain numbers in column Met IC50 (μM) of Table 2”, the IC50 was 0.059 µM. As to `CCN(CC)CCS(=O)(=O)Nc1ccc(-c2cnc(N)c(OCc3c(F)ccc(F)c3Cl)n2)cc1` [II-17], inhibition was half-maximal at 0.46 µM (IC50).

Consider `Nc1ncc(-c2ccc(NS(=O)(=O)CCN3CCN(C(=O)CO)CC3)cc2)nc1OCc1c(F)ccc(F)c1Cl` [II-19, 2-[4-(2-Hydroxy-acetyl)-piperazin-1-yl]-ethanesulfonic acid {4-[5-amino-6-(2-chloro-3,6-difluoro-benzyloxy)-pyrazin-2-yl]-phenyl}-amide], for which the midpoint of inhibition, the IC50, lay at 0.45 µM. On the same count and under the same terms, the value for `C[C@@H]1CN(C(=O)c2ccc(-c3cnc(N)c(OCc4c(F)ccc(F)c4Cl)n3)cc2)C[C@H](C)N1` [II-41, {4-[5-Amino-6-(2-chloro-3,6-difluoro-benzyloxy)-pyrazin-2-yl]-phenyl}-(3,5-dimethyl-piperazin-1-yl)-methanone] was 0.48 µM; that for `Nc1ncc(-c2ccc(C(=O)N3CCC(N4CCCC4)CC3)cc2)nc1OCc1c(F)ccc(F)c1Cl` [II-42, {4-[5-Amino-6-(2-chloro-3,6-difluoro-benzyloxy)-pyrazin-2-yl]-phenyl}-(4-pyrrolidin-1-yl-piperidin-1-yl)-methanone] was 0.33 µM. Still for that read-out and setting: under `CN1CCC(NC(=O)c2ccc(-c3cnc(N)c(OCc4c(F)ccc(F)c4Cl)n3)cc2)CC1` [II-44, 4-[5-Amino-6-(2-chloro-3,6-difluoro-benzyloxy)-pyrazin-2-yl]-N-(1-methyl-piperidin-4-yl)-benzamide] stands 0.5 µM.
